Data reported in patent US7098210B2, “2h-pyridazine-3-one derivatives, pharmaceutical compositions containing the same and a process for the preparation of the active ingredient” (Egis Gyógyszergyár Rt., priority 2001, dated 2006).

What was measured:
male Wistar rats = assay: Cataleptogenous effect (method of Morpurgo); format: in vivo, rat; details: minimum effective dosis inducing catalepsy
Source text: The cataleptogenous effect was studied according to the method of Morpurgo [Morpurgo, C., Arch. Int. Pharmacodyn., 137, 84 ([…])]. Male Wistar rats of 220 to 240 g body weight have been used for the examinations. The fore-feet of the rats were placed on a gum stopper, one by one, and it was observed how the animal tolerated the unusual posture. The normal (non-cataleptic) animal removes the foot from the stopper during the measuring time of 10 seconds. If the animal keeps the foot on the stopper during the measuring time, this stiff state accompanied by myotonia is evaluated as catalepsy.

[1] = tested on: isolated right ventricular papillary muscle of the rabbit; assay: Cardiotoxic effect: effective refractory period (ERP) in vitro
Experimental: The cardiotoxic effect was determined in isolated right ventricular papillary muscle of the rabbit in vitro.
The modified method of Hackett et al., 1990 was used (Hacket, A. M., Mc Donald S. J., P., Schweingruber, F. and Gartwaite, S. M.: Simple in vitro method to characterize antiarrhythmic agents J. Pharmacol. Methods 23, 107–116, 1990).
The effective refractory period (ERP) was measured in isolated right ventricular papillary muscle of the rabbit in vitro.
The contractions of papillary muscle preparations obtained from New Zealand rabbits weighing 2.5–3.2 kg were evaluated. The contractions (isometrically paced at 1 Hz) were recorded by 4-channel Hugo Sachs apparatus. The effects of the test compounds or references were measured in 1 μM concentration.

SMILES: Cc1nc2n(c(=O)c1CCN1CCC(c3noc4cc(F)ccc34)CC1)CCCC2 [risperidone, 3-{2-[-4-(6-fluoro-1,2-benzisoxazole-3-yl)-piperidinyl]ethyl}-6,7,8,9-tetrahydro-2-methyl-4H-pyrido[1,2-a]pyrimidine-4-one, reference compound]
- MED in mg/kg po. (male Wistar rats): 1 mg/kg
- cardiotoxic effect (significant prolongation of ERP) ([1]; 1 μM concentration): considerable and significant cardiotoxic potential
- % change of ERP (1 μM) ([1]; 1 μM, papillary muscle paced at 1 Hz, vs. baseline): 34.8 ± 4.8 %
